# Antibody variant affinities, Ab-14 heavy chain, assay B

Reference: Li et al. 2023, doi:10.1038/s41467-023-39022-2. File: FLAb, binding data.

The target is the same throughout: PDVDLGDISGINAS, from the HR2 region of SARS-CoV-2 spike.

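The starting antibody came from a phage panning campaign against this peptide. The variants were designed computationally from a first round of random CDR variants and then made and measured. Their group label is 14H_En_HC (En: ensemble of fine-tuned language models; HC: hill climbing; a sequence that several methods proposed may carry one label only). Affinity was read by AlphaSeq, a pooled yeast mating assay with surface-displayed partners. Pairs that bind mate more often; barcode pairs of the diploids are counted by sequencing. The ratio of observed to expected reads was calibrated, replicate by replicate, on BCL2-family standards whose Kd was known from biolayer interferometry. There are six technical replicates.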

Each scFv is VH, a 15-residue (Gly4Ser)3 linker, VL, as in the parent Ab-14, and differs from it in the CDRs of the heavy chain only.
VH: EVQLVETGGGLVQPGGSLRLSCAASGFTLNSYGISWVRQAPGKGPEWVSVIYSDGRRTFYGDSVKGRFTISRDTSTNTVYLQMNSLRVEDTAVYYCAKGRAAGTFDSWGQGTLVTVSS
VL: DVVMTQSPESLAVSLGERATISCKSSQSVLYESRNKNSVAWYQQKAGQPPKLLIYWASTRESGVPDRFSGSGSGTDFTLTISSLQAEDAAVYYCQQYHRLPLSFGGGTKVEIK

Each variant is given by its three heavy chain CDRs, as the data file delimits them; those of the parent are GFTLNSYGIS, VIYSDGRRTFYGDSVK, GRAAGTFDS.
The read-out is the apparent dissociation constant on a log10 scale (nM): the lower, the stronger.
The mean shown is taken over the replicates in which the pair was detected.
"ND" means that the variant was in the library but no mating with the target was seen in that replicate; the authors take this as a sign of poor binding, and no number exists.
The parent sequence was in this pool as ten entries: three were never detected, three once, and four in most replicates, with averages from 0.34 to 2.37.
As a blank, each scFv also met three strains without target: over all heavy chain designs, 1% of these pairings were detected, typically at 2.08 and seldom below 0.84. For each scFv, signals with the empty controls are counted beside the result, with their mean in brackets.
The authors averaged sequences with at least three values out of six and counted those with two or fewer as poor binders.
A sequence measured in both rounds can read differently, since the two assays cover different ranges.

CDR-H1	CDR-H2	CDR-H3	log10 Kd (nM) by replicate	mean log10 Kd (nM)	empty controls
GFDLDEYGIS	VIYADGRRTFYADSVK	GTLAGTFDT	-0.70 / -0.46 / -0.75 / -1.13 / -0.74 / -0.67	-0.74	1 of 18 (2.84)
GFDLNEYGIS	VIYADGRRTFYDDSVK	GNLAGTFDL	-1.31 / -1.94 / -2.20 / -1.07 / -1.74 / -1.26	-1.59	0 of 18
GFDLNEYGIS	VIYADGRRTFYADSVK	GEIAGTFIQ	-0.06 / -0.26 / -0.41 / -0.45 / -0.38 / -0.20	-0.30	2 of 18 (2.47)
GFDLNEYGIS	VIYADGRRTFYTDSVK	GTNAGTFDM	-0.07 / -0.37 / -0.39 / -0.40 / -0.50 / -0.37	-0.35	0 of 18
GFSLDEYGIS	VIYADGVRTFYADDVK	GNVAGTFDV	-0.21 / -0.45 / -0.40 / -0.43 / -0.40 / -0.09	-0.33	0 of 18
GFDLNEYGIS	VIYADGIRTFYADSVK	GNEAGTFDS	-0.34 / ND / -0.31 / -0.12 / ND / -1.33	-0.52	0 of 18
GFDLNEYGIS	VIYADGMRTFYTDSVK	GEFAGTFDE	0.17 / -0.03 / -0.17 / -0.13 / -0.14 / 0.38	0.01	0 of 18
GFDLNEYGIS	VIYADGRRTFYSDSVK	GQTGGTFDQ	-0.14 / 0.11 / -0.09 / 0.01 / -0.21 / 0.12	-0.03	2 of 18 (3.18)
GFDLNEYGIS	VIYADGRRTFYSDSVK	GNVAGTFDE	-0.37 / -0.31 / -0.44 / -0.71 / -0.71 / -0.23	-0.46	1 of 18 (2.61)
GFDLNEYGIS	VIYADGRRTFYTDSVK	GNIAGTFDV	-1.04 / -1.05 / -1.39 / -1.01 / -1.43 / -0.82	-1.12	0 of 18
GFDLNEYGIS	VIYADGQRTFYTDSVK	GEAAGTFDQ	-0.45 / -0.43 / -0.57 / -0.70 / -0.47 / -0.35	-0.49	1 of 18 (1.88)
GFDLNEYGIS	VIYADGQRTAYADSVK	GEAAGTFDS	-0.30 / 0.03 / -0.07 / -0.63 / -0.62 / -0.20	-0.30	0 of 18
GFDLNEYGIS	VIYADGRRTFYADSVK	GEIAGTFDI	-0.37 / -0.46 / -0.48 / -0.57 / -0.46 / -0.06	-0.40	1 of 18 (3.16)
GFDLNEYGIS	VIYADGRRTFYADSVK	GKNAGTFNM	-0.57 / -0.52 / -1.21 / -0.30 / -0.28 / 0.22	-0.44	0 of 18
GFDLNEYGIS	VIYADGRRTQYIDSVK	GEIAGTFDI	-0.04 / -0.28 / -0.21 / -0.57 / 0.07 / 0.11	-0.15	0 of 18
GFDLNEYGIS	VIYADGRRTAYVDSVK	GEAAGTFDS	0.58 / 0.35 / 0.68 / 0.35 / 0.54 / 0.53	0.50	0 of 18
GFDLNEYGIS	VIYADGMRTFYADSVK	GQAAGTFTL	ND / ND / ND / ND / ND / ND	ND	0 of 18
GFDLNEYGIS	VIYADGMRTAYADSVK	GQLAGTFDV	1.14 / 0.93 / 0.84 / 0.39 / 0.40 / 0.57	0.71	0 of 18
GFDLDEYGIS	VIYADGRRTFYADSVK	GNNAGTFDS	-0.35 / -0.71 / -0.63 / -0.87 / -0.37 / -0.07	-0.50	0 of 18
GFDLNEYGIS	VIYADGRRTFYIDSVK	GQIAGTFDQ	-0.32 / -0.40 / -0.70 / -0.82 / -0.68 / -0.33	-0.54	0 of 18
GFDLNEYGIS	VIYADGSRTFYSDSVK	GNQAGTFDE	-0.27 / -0.36 / -0.92 / -0.30 / -0.18 / 0.20	-0.30	0 of 18
GFDINEYGIS	VIYADGRRTAYADSVK	GEIAGTFDS	-0.59 / -0.40 / -0.63 / -0.64 / -0.51 / -0.39	-0.53	0 of 18
GFDLEEYGIS	VIYADGRRTFYADKVK	GENAGTFDI	-1.27 / -0.72 / -0.21 / -1.76 / ND / -0.09	-0.81	0 of 18
GFDLNEYGIS	VIYADGQRTFYSDSVK	GQNAGTFDV	-0.41 / -0.37 / -0.78 / -0.98 / -0.70 / -0.35	-0.60	0 of 18
GFDLNEYGIS	VIYADGRRTYYIDSVK	GEIAGTFDS	-0.84 / -0.68 / -0.81 / -1.46 / -1.31 / -1.13	-1.04	0 of 18
GFDLNEYGIS	VIYADGRRTFYADNVK	GNVAGTFDL	-1.00 / -1.05 / -1.01 / -0.86 / -0.79 / -0.47	-0.86	0 of 18
GFGLDEYGIS	VIYADGRRTFYQDSVK	GNVAGTFDQ	0.24 / -0.21 / -0.49 / -0.13 / -0.38 / -0.04	-0.17	0 of 18
GFDLNEYGIS	VIYADGKRTAYTDSVK	GANAGTFDQ	-0.22 / -0.54 / -0.16 / -0.53 / -0.22 / -0.23	-0.32	0 of 18
GFDLNEYGIS	VIYADGRRTFYADSVK	GKAAGTFDL	-0.13 / -0.54 / -0.55 / -0.71 / -0.59 / -0.32	-0.47	0 of 18
GFDLNEYGIS	VIYADGLRTFYTDSVK	GEIAGTFDS	-0.80 / -0.71 / 0.03 / -1.39 / -0.04 / -0.20	-0.52	0 of 18
GFDLNEYGIS	VIYADGRRTAYSDSVK	GETAGTFVQ	ND / 1.30 / 0.38 / 0.26 / 0.00 / 0.46	0.48	1 of 18 (1.12)
GFDLNEYGIS	VIYADGRRTFYTDSVK	GGNAGTFDV	-0.50 / -0.31 / -0.90 / -1.01 / -0.64 / -0.98	-0.72	0 of 18
GFDLNEYGIS	VIYADGMRTFYTDSVK	GTNAGTFDM	0.16 / 0.26 / -0.23 / -0.06 / -0.44 / 0.09	-0.04	2 of 18 (2.17)
GFDLNEYGIS	VIYADGRRTFYADSVK	GTNAGTFDA	-0.27 / -0.47 / -0.32 / -0.57 / -0.29 / -0.06	-0.33	0 of 18
GFDLEDYGIS	VIYADGRRTQYADSVK	GETAGTFDL	-0.04 / -0.14 / -0.16 / -0.24 / -0.28 / -0.05	-0.15	1 of 18 (3.41)
GFSLDEYGIS	VIYADGRRTFYADSVK	GNVAGTFDS	0.14 / 0.13 / 0.32 / 0.05 / 0.11 / 0.19	0.16	0 of 18
GFDLNEYGIS	VIYADGRRQFYADKVK	GENAGTFNV	ND / 1.27 / -0.75 / -0.76 / -0.32 / 0.11	-0.09	0 of 18
GFDLNEYGIS	VIYADGRRTFYSDSVK	GETAGTFIQ	1.13 / 1.51 / 0.82 / 0.87 / 1.64 / 1.00	1.16	1 of 18 (2.72)
GFDLNEYGIS	VIYADGRRTAYLDSVK	GEAAGTFDQ	0.08 / -0.10 / -0.19 / -0.20 / 0.11 / 0.26	-0.01	1 of 18 (1.36)
GFDLNEYGIS	VIYADGRRTFYTDSVK	GEAAGTFDM	-0.10 / 0.07 / -0.25 / -0.14 / -0.28 / -0.03	-0.12	0 of 18
GFDLNEYGIS	VIYADGRRTFYSDSVK	GEVAGTFDS	-0.04 / -0.70 / 0.28 / -1.38 / -1.11 / -0.70	-0.61	0 of 18
GFDLNEYGIS	VIYADGRRTFYADSVK	GEIAGTFVF	0.15 / 0.14 / -0.07 / -0.17 / -0.17 / -0.11	-0.04	1 of 18 (3.00)
GFDLNEYGIS	VIYADGVRTAYIDSVK	GEVAGTFDS	0.45 / 0.09 / 0.12 / -0.14 / 0.44 / 0.71	0.28	0 of 18
GFDLNEYGIS	VIYADGRRTFYADSVK	GNQAGTFDE	-0.84 / -0.80 / -0.38 / -0.33 / 0.13 / 0.00	-0.37	0 of 18
GFNLNEYGIS	VIYADGRRSFYSDSVK	GENAGTFDV	-0.03 / -0.26 / -0.22 / -0.13 / -0.34 / -0.07	-0.17	1 of 18 (1.57)
GFDLNEYGIS	VIYADGMRTFYADSVK	GQIAGTFDF	-0.82 / -0.95 / -1.23 / -1.24 / -1.34 / -0.80	-1.06	0 of 18
GFDINEYGIS	VIYADGRRTFYADSVK	GQTAGTFDN	-0.30 / -0.49 / -0.55 / -0.48 / -0.82 / -0.56	-0.53	0 of 18
GFNLNEYGIS	VIYADGRRTFYADSVK	GETAGTFDS	-0.49 / -0.89 / -0.07 / -1.13 / -0.91 / -0.42	-0.65	0 of 18
GFDLEDYGIS	VIYADGRRTFYADSVK	GNVAGTFDF	-0.28 / -0.33 / -0.32 / -0.37 / -0.38 / -0.19	-0.31	1 of 18 (3.16)
GFDLDEYGIS	VIYADGRRTAYADSVK	GEAAGTFDS	-0.13 / -0.31 / -0.33 / -0.43 / 0.03 / 0.06	-0.19	0 of 18

Repeated from above, the 5 best binders with a signal in all replicates:

| CDR-H1 | CDR-H2 | CDR-H3 | log10 Kd (nM) by replicate | mean log10 Kd (nM) | empty controls |
|---|---|---|---|---|---|
| GFDLNEYGIS | VIYADGRRTFYDDSVK | GNLAGTFDL | -1.31 / -1.94 / -2.20 / -1.07 / -1.74 / -1.26 | -1.59 | 0 of 18 |
| GFDLNEYGIS | VIYADGRRTFYTDSVK | GNIAGTFDV | -1.04 / -1.05 / -1.39 / -1.01 / -1.43 / -0.82 | -1.12 | 0 of 18 |
| GFDLNEYGIS | VIYADGMRTFYADSVK | GQIAGTFDF | -0.82 / -0.95 / -1.23 / -1.24 / -1.34 / -0.80 | -1.06 | 0 of 18 |
| GFDLNEYGIS | VIYADGRRTYYIDSVK | GEIAGTFDS | -0.84 / -0.68 / -0.81 / -1.46 / -1.31 / -1.13 | -1.04 | 0 of 18 |
| GFDLNEYGIS | VIYADGRRTFYADNVK | GNVAGTFDL | -1.00 / -1.05 / -1.01 / -0.86 / -0.79 / -0.47 | -0.86 | 0 of 18 |